One compound from patent publication US20090137577A1, “HETEROCYCLIC COMPOUNDS” (Pfizer Inc., priority 2007, published 2009) can be followed below.

The chains behind the UniProt entries cited, without tags or fusion partners. Residues count along the entry.
UniProt Q14416, 19-872 limits assumed: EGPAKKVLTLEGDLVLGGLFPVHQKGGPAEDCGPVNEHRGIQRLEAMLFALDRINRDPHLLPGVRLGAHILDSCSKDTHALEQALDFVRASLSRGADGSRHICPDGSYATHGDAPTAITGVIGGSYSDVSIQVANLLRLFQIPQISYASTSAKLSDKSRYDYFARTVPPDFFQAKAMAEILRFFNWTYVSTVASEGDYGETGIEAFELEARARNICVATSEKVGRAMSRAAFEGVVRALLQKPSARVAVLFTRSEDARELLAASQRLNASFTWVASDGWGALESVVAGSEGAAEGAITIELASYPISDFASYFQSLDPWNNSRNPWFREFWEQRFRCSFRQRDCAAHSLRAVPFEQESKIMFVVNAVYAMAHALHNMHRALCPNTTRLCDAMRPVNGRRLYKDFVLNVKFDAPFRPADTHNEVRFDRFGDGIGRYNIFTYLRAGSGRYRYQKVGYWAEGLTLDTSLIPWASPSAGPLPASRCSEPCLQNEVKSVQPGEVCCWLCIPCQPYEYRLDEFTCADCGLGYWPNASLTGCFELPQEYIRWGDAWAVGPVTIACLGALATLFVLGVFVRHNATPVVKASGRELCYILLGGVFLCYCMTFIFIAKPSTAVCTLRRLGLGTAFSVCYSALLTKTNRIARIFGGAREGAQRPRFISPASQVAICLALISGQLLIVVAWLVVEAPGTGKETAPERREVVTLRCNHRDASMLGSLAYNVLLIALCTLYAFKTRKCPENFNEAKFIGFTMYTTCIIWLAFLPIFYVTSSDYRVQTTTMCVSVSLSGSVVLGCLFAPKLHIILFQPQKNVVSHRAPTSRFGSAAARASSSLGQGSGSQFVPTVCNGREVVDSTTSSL

By EC50 is commonly meant the concentration that produces a half-maximal response.

The target in the test is mGluR2 receptor (metabotropic glutamate receptor 2) (Homo sapiens, UniProt Q14416). In words: mGluR2 potentiator screen (FLIPR, EC10-EC20 glutamate challenge).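 Also: HEK cells stably expressing human mGluR2 with GL15 G protein, Fluo-4 calcium fluorescence read on FLIPR, compounds added before an EC10-EC20 glutamate challenge to detect potentiation.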 It is filed as cell-based. As to conditions: read-out: mGluR 2 EC50 (geometric mean).

In the case of `CC1CN(Cc2ccc(O[C@@H]3C[C@H]4CC[C@@H]3C4)cc2)C(=O)O1` (stereo partly shown), the EC50 turned out to be 80.1 nM.
